# Antibody variant affinities, Ab-14 heavy chain, assay B

Source: Li et al. 2023 (doi:10.1038/s41467-023-39022-2), MIT Lincoln Laboratory and A-Alpha Bio; data file from the FLAb repository.

Target: peptide PDVDLGDISGINAS, taken from heptad repeat 2 (HR2) of SARS-CoV-2 spike.

The variants keep the light chain, the linker and the frameworks of Ab-14 (scFv order VH, three GGGGS repeats, VL).
VH: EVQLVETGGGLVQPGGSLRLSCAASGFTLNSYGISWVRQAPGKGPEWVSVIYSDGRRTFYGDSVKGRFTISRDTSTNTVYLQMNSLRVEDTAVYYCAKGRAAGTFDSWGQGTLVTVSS
VL: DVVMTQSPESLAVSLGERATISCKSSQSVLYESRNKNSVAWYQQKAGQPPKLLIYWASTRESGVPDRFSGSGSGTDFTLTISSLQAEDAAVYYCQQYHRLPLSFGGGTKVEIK

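The parent was found by panning a naive human phage display library on the peptide. The variants were designed computationally from a first round of random CDR variants and then made and measured. Group labels follow the data file (Ctrl: baseline library sampled from a position-specific scoring matrix, with some repeated check sequences; GP: Gaussian process model; GPLM: also part of the Gaussian process libraries; HC: hill climbing; Gen: genetic algorithm; a sequence that several methods proposed may carry one label only). AlphaSeq pools MATa yeast showing the antibodies with MATalpha yeast showing the peptide. Binding brings cells together so that they mate, and sequencing counts the barcode pairs among the diploids. Scores were corrected for input abundance and mapped to Kd with protein pairs of known affinity run in the same pool. Mating was done six times.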

Changes read parent residue, position, new residue, counted from the first residue of the VH shown. Numbers give log10(Kd / nM), so 0 is 1 nM and 3 is 1 µM. Smaller is tighter. "nd" marks a missing value. The strain was present, yet no cells mated with the target were sequenced in that replicate, which points to weak or no binding. A sequence measured in both rounds can read differently, since the two assays cover different ranges. The authors' rule: three or more of the six replicates give a measured affinity, fewer mean a poor binder. Of ten entries with the parent sequence, four were seen in most replicates (averages 0.34 to 2.37), three in one and three in none, so single entries are noisy. Where one sequence has several entries in the source, the replicates are listed entry by entry, parted by semicolons. Nonspecific signal, from three strains lacking the peptide, appeared in 1% of pairings of all heavy chain designs, centred on 2.08 (5% of these signals below 0.84); values are not corrected for it. Also given: how often the same scFv was detected with the empty control strains.

Variant N30E+S31D+Y60M+D106N+S107V [Ctrl] showed nd, nd, 2.68, nd, 2.42, nd (controls 0 of 18).
Variant G26H+S53F+F59A+A101V+A102T [Ctrl] showed nd, nd, nd, nd, nd, nd (controls 2 of 18).
Variant Y60M+G61E+R100K+A102M [Ctrl] showed nd, nd, nd, nd, nd, nd (controls 0 of 18).
Variant I34Y+S35T+S53A [Ctrl] showed nd, nd, nd, nd, nd, nd (controls 0 of 18).
Variant R100F+G103L+D106F [Ctrl] showed nd, nd, nd, nd, nd, nd (controls 0 of 18).
Variant F59S+G61H+R100N+F105G [Ctrl] showed 0.09, -0.21, 0.13, -0.22, 0.18, 0.03 (controls 0 of 18).
Variant T28D+A101N [Ctrl+GPLM_Gen] showed 3.02, -0.34, 1.28, 0.94, nd, 0.38; 0.24, 0.39, 0.09, -0.07, 0.13, -0.05 (controls 0 of 36).
Variant S31E+Y32K+R56L+D106S [Ctrl] showed nd, nd, nd, nd, nd, nd (controls 0 of 18).
Variant T28D+I34G+F105S+D106H+S107N [Ctrl] showed nd, nd, nd, nd, nd, nd (controls 0 of 18).
Variant R56V+S63N+K65A+R100D+T104M [Ctrl] showed nd, nd, nd, nd, nd, nd (controls 0 of 18).
Variant T28Q [Ctrl+GP_HC] showed 1.59, nd, 1.60, nd, 2.12, 2.16; nd, 2.17, nd, nd, 3.09, 2.37 (controls 0 of 36).
Variant G61S+A101N [Ctrl+GPLM_HC] showed 0.54, 0.52, 0.11, 0.40, 0.39, 0.51; 0.72, 0.41, 0.62, 0.14, 1.03, 0.70 (controls 0 of 36).
Variant F27Q+R56Q+T104R [Ctrl] showed nd, nd, nd, nd, nd, nd (controls 0 of 18).
Variant K65V+R100Y+G103A [Ctrl] showed nd, nd, nd, nd, nd, nd (controls 0 of 18).
Variant F27R+S53A+R56E+V64N [Ctrl] showed nd, nd, nd, nd, nd, nd (controls 0 of 18).
Variant T28W+N30D+R100W+A101V+G103D [Ctrl] showed nd, nd, nd, nd, nd, nd (controls 1 of 18).
Variant D62N+G103A [Ctrl] showed nd, nd, nd, nd, nd, nd (controls 0 of 18).
Variant N30D+S31E+A102Q [Ctrl] showed nd, nd, nd, nd, nd, nd (controls 0 of 18).
Variant G26K+V50R+A102H+T104R [Ctrl] showed nd, nd, nd, nd, nd, nd (controls 0 of 18).
Variant T28P+I34V [Ctrl] showed nd, nd, 1.46, nd, 2.56, 3.05 (controls 1 of 18).
Variant S53A+R56W+R100Q [Ctrl] showed 1.33, 0.58, 0.84, 0.96, -0.23, 1.98 (controls 0 of 18).
Variant R56I+G61H+A101Q [Ctrl] showed 0.74, 1.56, 1.42, 0.60, 0.95, 1.89 (controls 1 of 18).
Variant S31D+F59A+G61A [Ctrl] showed 0.79, 0.99, 0.78, 1.38, nd, 0.81; 0.04, 0.42, 0.22, -0.16, -0.24, -0.05; 0.33, 0.39, 0.29, 1.03, -0.28, -0.25; 0.37, -0.35, 0.12, 0.04, -0.16, -0.14; 1.14, 1.18, 1.50, 0.96, 0.96, 1.16 (controls 4 of 90).
Variant T28N+R56L+F59S+G103V [Ctrl] showed nd, nd, nd, nd, nd, nd (controls 0 of 18).
Variant S63A+A101E+D106T [Ctrl] showed 0.53, 0.29, 0.40, 1.72, -0.05, 1.32 (controls 0 of 18).
Variant N30E+D106E [Ctrl] showed nd, nd, nd, nd, nd, nd (controls 1 of 18).
Variant G26Q+S31E+G61S [Ctrl] showed nd, nd, nd, 0.27, 1.14, nd (controls 1 of 18).
Variant T28H+S107Q [Ctrl] showed nd, nd, nd, nd, nd, nd (controls 0 of 18).
Variant T28S+L29I+D106S+S107W [Ctrl] showed nd, nd, nd, nd, nd, nd (controls 0 of 18).
Variant L29I+R56L+G103L [Ctrl] showed nd, nd, nd, nd, nd, nd (controls 0 of 18).
Variant G61R+S107L [Ctrl] showed nd, nd, nd, nd, nd, nd (controls 0 of 18).
Variant F27I+S53A+R100T+D106I [Ctrl] showed nd, nd, nd, nd, nd, nd (controls 0 of 18).
Variant N30G+A101N+A102R+S107D [Ctrl] showed nd, nd, nd, nd, nd, nd (controls 0 of 18).
Variant F27E+S31N [Ctrl] showed nd, 2.12, 2.02, 1.50, 1.20, 1.00 (controls 0 of 18).
Variant G61I+A101I [Ctrl+GP_HC] showed nd, nd, nd, 0.89, nd, nd; 0.53, 1.74, nd, 2.70, nd, nd (controls 0 of 36).
Variant T28H+R56L+S63N+F105K [Ctrl] showed 2.69, 3.07, nd, 2.48, 2.11, nd (controls 0 of 18).
Variant T28W+S31L+G99S [Ctrl] showed nd, nd, nd, nd, nd, 2.18 (controls 0 of 18).
Variant A102K+G103A+T104P+F105A+D106I [Ctrl] showed nd, 3.46, nd, nd, nd, nd (controls 1 of 18).
Variant G61I+A101Y [Ctrl] showed 1.51, nd, nd, nd, 2.71, nd (controls 0 of 18).
Variant S35T+G61K [Ctrl] showed nd, nd, nd, nd, nd, nd (controls 0 of 18).
Variant T28S+R56I+G61D+A102D [Ctrl] showed nd, nd, nd, nd, nd, nd (controls 0 of 18).
Variant T28E+K65R+R100D+F105W [Ctrl] showed nd, nd, 2.17, 0.85, 1.09, 2.20 (controls 0 of 18).
Variant S31D+G61L+K65R+G103F+S107Q [Ctrl] showed nd, nd, nd, nd, nd, nd (controls 0 of 18).

6 of these entries, quoted again:

changes,group,log10 Kd (nM) by replicate,empty controls
S31D+F59A+G61A,Ctrl,"0.79, 0.99, 0.78, 1.38, nd, 0.81; 0.04, 0.42, 0.22, -0.16, -0.24, -0.05; 0.33, 0.39, 0.29, 1.03, -0.28, -0.25; 0.37, -0.35, 0.12, 0.04, -0.16, -0.14; 1.14, 1.18, 1.50, 0.96, 0.96, 1.16",4 of 90
I34Y+S35T+S53A,Ctrl,"nd, nd, nd, nd, nd, nd",0 of 18
G26Q+S31E+G61S,Ctrl,"nd, nd, nd, 0.27, 1.14, nd",1 of 18
F59S+G61H+R100N+F105G,Ctrl,"0.09, -0.21, 0.13, -0.22, 0.18, 0.03",0 of 18
K65V+R100Y+G103A,Ctrl,"nd, nd, nd, nd, nd, nd",0 of 18
F27Q+R56Q+T104R,Ctrl,"nd, nd, nd, nd, nd, nd",0 of 18